# Source: the supplement of paper PMC12613149
# What was measured:
# [1] = collision cross section (TIMS, N2 drift gas) of the primary ion; higher = larger gas-phase ion size; details: ionization mode: ESI+
# Protocol: (§1)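 Reference mixture of environmental contaminants analysed by RP-LC (BEH C18, 50 °C; ESI+ with water/MeOH plus formic acid and ammonium formate, ESI- with ammonium bicarbonate) coupled to a timsTOF Pro 2 with trapped ion mobility in nitrogen (ramp/accumulation 100 ms). CCS was calibrated with Agilent tune mix (CCS compendium) and averaged over five injections at 0.5-500 ng/mL. The table reports the lowest-CCS (putative monomer) peak; retention times are on the same gradient.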
# [2] = reversed-phase LC retention time (C18, 15 min MeOH gradient); higher = more hydrophobic / later elution; details: ionization mode: ESI+
# Protocol: as §1
smiles,measurement,setting,value
CCC[N+](CCC)(CCC)CCC [Tetrapropylammonium],collision cross section,[1]; ion species: [M]+,145.78 Å²
same,reversed-phase LC retention time,[2]; ion species: [M]+,7.43 min
CCOP(=S)(OCC)Oc1ncn(-c2ccccc2)n1 [Triazophos],collision cross section,[1]; ion species: [M+H]+,171.3 Å²
same,reversed-phase LC retention time,[2]; ion species: [M+H]+,14.5 min
